Laboratory results: PubChem BioAssay AID504905 (The Scripps Research Institute Molecular Screening Center, 2011)
The list shows a part of the results, in another mix than the full data. Some of these compounds have results that are not shown, active ones among them. Calls of active or inactive are those of the source. No stated cut-off is given here; in the data, active means activation above about 17%; inactive means the rest.

Amino acid sequences for entries named in this document (tags omitted).
UniProt P47898, whole entry: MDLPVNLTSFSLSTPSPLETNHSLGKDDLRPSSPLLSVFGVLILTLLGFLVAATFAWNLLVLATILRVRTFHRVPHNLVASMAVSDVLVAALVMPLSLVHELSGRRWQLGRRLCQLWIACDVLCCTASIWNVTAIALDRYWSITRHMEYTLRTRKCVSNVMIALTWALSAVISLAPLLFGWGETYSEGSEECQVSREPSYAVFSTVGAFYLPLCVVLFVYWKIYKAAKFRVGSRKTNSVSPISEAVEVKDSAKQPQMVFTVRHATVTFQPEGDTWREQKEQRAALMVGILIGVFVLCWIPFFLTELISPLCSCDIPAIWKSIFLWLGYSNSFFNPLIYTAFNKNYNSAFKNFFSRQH

Target: 5-hydroxytryptamine receptor 5A (Homo sapiens) (UniProt P47898)
Experiment: activation of human 5-HT5A receptor – cell-based, luminescence, counter-screen for OPRM1-OPRD1 heterodimer agonist project (AID 504905);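 further: 0% = vehicle-treated cells and 100% = reference agonist response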
Conditions: HTR5A agonist counterscreen, at 9.3 µM, stronger effect = higher value

CN(C)c1ccc(C(=O)NCC2(N(C)C)CCCCC2)cc1
activation: inactive: -2.9%

CN(C)C1(CNC(=O)c2ccc(Br)cc2)CCCCC1
activation: inactive: 3.79%
